Experimental data reported in patent US11136312B2, “3,4,5-trisubstituted-1,2,4-triazoles and 3,4,5-trisubstituted-3-thio-1,2,4-triazoles and uses thereof” (Board of Trustees of Southern Illinois University, priority 2017, dated 2021).

Protein sequences, listed by entry. Tags and fused reporters are not part of them. Lines headed by an entry give the natural chain unless they say otherwise; changes in a name come on top.
UniProt P31391: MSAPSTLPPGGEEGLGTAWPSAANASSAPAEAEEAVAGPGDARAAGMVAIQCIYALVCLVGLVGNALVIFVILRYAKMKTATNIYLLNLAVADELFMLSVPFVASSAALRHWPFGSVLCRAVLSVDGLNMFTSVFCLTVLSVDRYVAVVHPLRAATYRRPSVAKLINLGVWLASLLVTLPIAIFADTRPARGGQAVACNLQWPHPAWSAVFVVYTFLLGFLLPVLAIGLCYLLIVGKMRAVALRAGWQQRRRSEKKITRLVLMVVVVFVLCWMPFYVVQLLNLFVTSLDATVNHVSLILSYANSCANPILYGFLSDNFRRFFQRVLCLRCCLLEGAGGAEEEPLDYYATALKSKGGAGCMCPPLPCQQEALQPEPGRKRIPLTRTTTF

What was measured:
[1] = biological target: human somatostatin receptor SSTR4 (Homo sapiens (Human), UniProt P31391); assay: Competitive radioligand binding, 125I-Tyr-SRIF 14, membrane preparations; conditions: competitive binding vs 125I-Tyr-SRIF 14, human SSTR4 membranes; read-out: SST4
Experimental: Respective membrane receptor preparations were prepared in assay buffer (25 mM HEPES, 10 mM MgCl2, 1 mM CaCl2, 0.5% BSA, pH=7.4) at a 1:150 dilution. […] Binding assays were performed in triplicate for each concentration of ligand in a total volume of 200 μL radioligand (25 μL ligand, 25 μL radioligand, 150 μL receptors) and incubated at room temperature for 90 minutes using a shaking table. Binding was terminated by filtration through GF/B glass fiber filters that were presoaked in 0.5% polyethyleneimine for a minimum of 4 hours. Filters were washed 9× with 1000 μL ice cold wash buffer (50 mM Tris-HCl, pH=7.4, 0.2% BSA). Filters were scored, transferred into plastic test tubes and counted in a gamma counter (Wizard2, Perkin-Elmer). Determination of the Ki for each compound was performed using non-linear regression with GraphPad PRISM-5 software (GraphPad Software, Inc., La Jolla, Calif.).

[2] = biological target: CHO-K1 cells expressing human somatostatin SSTR4 (Homo sapiens (Human), UniProt P31391); assay: Inhibition of forskolin stimulated cAMP, TR-FRET LANCE assay; assay type: cell-based; conditions: against 5 μM forskolin
Experimental: Measurement of forskolin stimulated inhibition of cAMP was performed via time-resolved fluorescence resonance energy transfer (TR-FRET) LANCE assay (AD0262, PerkinElmer Life Science, Inc., Boston Mass.). […] LANCE cAMP assay was performed per manufacture instruction with assessment of respective compound, somatostatin-28 (Sigma-Aldrich Co., St. Louis, Mo.) as control agonist, against 5 μM forskolin, performed in triplicate across concentration curve. […] Data was calculated via GraphPad PRISM-5 software.

Row | SMILES | Ki [1] | EC50 [2] [nM]
1 | CS(=O)(=O)c1cccc(Cc2nnc(CCc3c[nH]c4ccccc34)n2CCCc2c[nH]cn2)c1 [SM-I-92, 3-(2-(4-(3-(1H-imidazol-4-yl)propyl)-5-(3-(methylsulfonyl)benzyl)-4H-1,2,4-triazol-3-yl)ethyl)-1H-indole] | 6.98 nM | 22.7
2 | Clc1ccc(Cc2nnc(CCc3c[nH]c4ccccc34)n2CCCc2c[nH]cn2)cc1 [BN-VI-62, 3-(2-(4-(3-(1H-Imidazol-4-yl)propyl)-5-(4-chlorobenzyl)-4H-1,2,4-triazol-3-yl)ethyl)-1H-indole] | 47.3 nM and 37.5 nM | 19.3
3 | FC(F)(F)c1cccc(Cc2nnc(CCc3c[nH]c4ccccc34)n2CCCc2c[nH]cn2)c1 [BN-VI-97, 3-(2-(4-(3-(1H-Imidazol-4-yl)propyl)-5-(3-(trifluoromethyl)benzyl)-4H-1,2,4-triazol-3-yl)ethyl)-1H-indole] | 3.2 nM | 6.08
4 | Clc1cccc(Cc2nnc(CCc3c[nH]c4ccccc34)n2CCCc2c[nH]cn2)c1 [BN-VI-56, 3-(2-(4-(3-(1H-Imidazol-4-yl)propyl)-5-(3-chlorobenzyl)-4H-1,2,4-triazol-3-yl)ethyl)-1H-indole] | 5.09 nM and 7.77 nM | 7.26
5 | FC(F)(F)Oc1cccc(Cc2nnc(CCc3c[nH]c4ccccc34)n2CCCc2c[nH]cn2)c1 [MM-I-36, 3-(2-(4-(3-(1H-imidazol-4-yl)propyl)-5-(3-(trifluoromethoxy)benzyl)-4H-1,2,4-triazol-3-yl)ethyl)-1H-indole] | 14.9 nM | 55
6 | O=[N+]([O-])c1cccc(Cc2nnc(CCc3c[nH]c4ccccc34)n2CCCc2c[nH]cn2)c1 [MM-I-43, 3-(2-(4-(3-(1H-Imidazol-4-yl)propyl)-5-(3-nitrobenzyl)-4H-1,2,4-triazol-3-yl)ethyl)-1H-indole] | 36.6 nM | 98.4
7 | COc1ccc(Cc2nnc(Cc3c[nH]c4ccccc34)n2CCCc2c[nH]cn2)cc1 [SK-I-23, 3-((4-(3-(1H-imidazol-4-yl)propyl)-5-(4-methoxybenzyl)-4H-1,2,4-triazol-3-yl)methyl)-1H-indole] | 2.22 nM | 7.27
8 | Fc1ccc(Cc2nnc(Cc3c[nH]c4ccccc34)n2CCCc2c[nH]cn2)cc1 [SK-I-16, 3-((4-(3-(1H-imidazol-4-yl)propyl)-5-(4-fluorobenzyl)-4H-1,2,4-triazol-3-yl)methyl)-1H-indole] | 1.72 nM | 1.76
9 | Clc1ccccc1Cc1nnc(CCc2c[nH]c3ccccc23)n1CCCc1c[nH]cn1 [MM-I-17, 3-(2-(4-(3-(1H-Imidazol-4-yl)propyl)-5-(2-chlorobenzyl)-4H-1,2,4-triazol-3-yl)ethyl)-1H-indole] | 21.5 nM | 17.3
10 | Fc1ccc2c(Cc3nnc(Cc4cccc(Br)c4)n3CCCc3c[nH]cn3)c[nH]c2c1 [MM-I-83, 3-((4-(3-(1H-imidazol-4-yl)propyl)-5-(3-bromobenzyl)-4H-1,2,4-triazol-3-yl)methyl)-6-fluoro-1H-indole] | 1.04 nM | 0.276
11 | COc1ccc2[nH]cc(Cc3nnc(Cc4cccc(C(F)(F)F)c4)n3CCCc3c[nH]cn3)c2c1 [SK-I-57, 3-((4-(3-(1H-imidazol-4-yl)propyl)-5-(3-(trifluoromethyl)benzyl)-4H-1,2,4-triazol-3-yl)methyl)-5-methoxy-1H-indole] | 1.76 nM | 1
12 | c1ccc(COc2cccc(Cc3nnc(CCc4c[nH]c5ccccc45)n3CCCc3c[nH]cn3)c2)cc1 [MM-I-53, 3-(2-(4-(3-(1H-imidazol-4-yl)propyl)-5-(3-(benzyloxy)benzyl)-4H-1,2,4-triazol-3-yl)-ethyl)-1H-indole] | 387 nM | 254
13 | Fc1cccc(Cc2nnc(CCc3c[nH]c4ccccc34)n2CCCc2c[nH]cn2)c1 [SM-I-38, 3-(2-(4-(3-(1H-Imidazol-4-yl)propyl)-5-(3-fluorobenzyl)-4H-1,2,4-triazol-3-yl)ethyl)-1H-indole] | 12.4 nM | 21
14 | Clc1cc(Cl)cc(Cc2nnc(CCc3c[nH]c4ccccc34)n2CCCc2c[nH]cn2)c1 [BN-VI-89, 3-(2-(4-(3-(1H-Imidazol-4-yl)propyl)-5-(3,5-dichlorobenzyl)-4H-1,2,4-triazol-3-yl)ethyl)-1H-indole] | 51.7 nM | 17
15 | Clc1ccc(Cc2nnc(Cc3c[nH]c4ccccc34)n2CCCc2c[nH]cn2)cc1 [SK-I-22, 3-((4-(3-(1H-imidazol-4-yl)propyl)-5-(4-chlorobenzyl)-4H-1,2,4-triazol-3-yl)methyl)-1H-indole] | 1.42 nM | 1.28
16 | CC(C)(C)Cc1nnc(Cc2c[nH]c3cc(F)ccc23)n1CCCc1c[nH]cn1 [SK-I-119, 3-((4-(3-(1H-imidazol-4-yl)propyl)-5-neopentyl-4H-1,2,4-triazol-3-yl)methyl)-6-fluoro-1H-indole] | 57 nM | 77.7
17 | N#Cc1cccc(Cc2nnc(CCc3c[nH]c4ccccc34)n2CCCc2c[nH]cn2)c1 [MM-I-63, 3-((4-(3-(1H-imidazol-4-yl)propyl)-5-(2-(1H-indol-3-yl)ethyl)-4H-1,2,4-triazol-3-yl)methyl)benzonitrile] | 30.3 nM | 75.8
18 | COc1ccc(Cc2nnc(Cc3c[nH]c4cc(F)ccc34)n2CCCc2c[nH]cn2)cc1 [SK-I-105, 3-((4-(3-(1H-imidazol-4-yl)propyl)-5-(4-methoxybenzyl)-4H-1,2,4-triazol-3-yl)methyl)-6-fluoro-1H-indole] | 5.13 nM | 6.65
19 | N[C@H](Cc1c[nH]c2ccccc12)c1nnc(Cc2cccc(Cl)c2)n1CCCc1c[nH]cn1 [BN-VI-87, (R)-1-(4-(3-(1H-Imidazol-4-yl)propyl)-5-(3-chlorobenzyl)-4H-1,2,4-triazol-3-yl)-2-(1H-indol-3-yl)ethanamine] | 448 nM | 692
20 | Cn1cc(CCc2nnc(Cc3ccc(Cl)c(Cl)c3)n2CCCc2c[nH]cn2)c2ccccc21 [SM-I-60, 3-(2-(4-(3-(1H-Imidazol-4-yl)propyl)-5-(3,4-dichlorobenzyl)-4H-1,2,4-triazol-3-yl)ethyl)-1-methyl-1H-indole] | 40.4 nM | 21.3
21 | Fc1ccc(Cc2nnc(Cc3c[nH]c4cc(F)ccc34)n2CCCc2c[nH]cn2)cc1 [SK-I-91, 3-((4-(3-(1H-imidazol-4-yl)propyl)-5-(4-fluorobenzyl)-4H-1,2,4-triazol-3-yl)methyl)-6-fluoro-1H-indole] | 0.902 nM | 3.17
22 | FC(F)(F)c1cccc(Cc2nnc(Cc3c[nH]c4ccccc34)n2CCCc2c[nH]cn2)c1 [MM-I-66, 3-((4-(3-(1H-imidazol-4-yl)propyl)-5-(3-(trifluoromethyl)benzyl)-4H-1,2,4-triazol-3-yl)methyl)-1H-indole] | 0.825 nM and 0.838 nM | 0.585
23 | COc1ccc(Cc2nnc(CCc3c[nH]c4ccccc34)n2CCCc2c[nH]cn2)cc1 [SM-I-29, 3-(2-(4-(3-(1H-Imidazol-4-yl)propyl)-5-(4-methoxybenzyl)-4H-1,2,4-triazol-3-yl)ethyl)-1H-indole] | 267 nM | 
24 | c1ccc(-c2ccc(Cc3nnc(CCc4c[nH]c5ccccc45)n3CCCc3c[nH]cn3)cc2)cc1 [MM-I-26, 3-(2-(4-(3-(1H-Imidazol-4-yl)propyl)-5-([1,1′-biphenyl]-4-ylmethyl)-4H-1,2,4-triazol-3-yl)ethyl)-1H-indole] | 945 nM | 

Values joined by “and” are separate entries in the source; they are usually repeats but may differ in a detail not shown here. Identical values can stand only once.
